The target in assay [1] is T1, 2F1/Fc soluble fusion protein (human 2F1 extracellular domain joined to the Fc region of a human IgG1) (human, UniProt Q13478 20-329).
T1 construct: Captured on the BIAcore chip by goat anti-human IgG Fc serum; also called human 2F1/Fc fusion protein; 2F1/Fc protein; not shown: Fc region of a human IgG1; made by procedures analogous to Baum et al. 1994
T1 sequence: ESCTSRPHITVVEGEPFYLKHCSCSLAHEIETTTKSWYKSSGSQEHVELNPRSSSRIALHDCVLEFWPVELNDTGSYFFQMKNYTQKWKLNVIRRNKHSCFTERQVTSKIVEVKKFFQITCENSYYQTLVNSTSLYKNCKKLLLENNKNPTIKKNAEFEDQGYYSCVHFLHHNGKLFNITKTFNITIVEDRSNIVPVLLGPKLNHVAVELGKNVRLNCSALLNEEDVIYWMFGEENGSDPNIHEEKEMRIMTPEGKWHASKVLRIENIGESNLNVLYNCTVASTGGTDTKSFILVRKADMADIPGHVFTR
Briefly: BIAcore; 2F1/Fc captured by anti-human IgG Fc serum, ligand at several different concentrations. An excerpt:
(§1) A BIAcore biosensor (Pharmacia Biosensor AB, Piscataway, N.J.) was used to examine binding of IL-1 ligands to the human 2F1/Fc fusion protein, using procedures essentially as described in Arend et al. (*J. Immunol.* 153: 4766–4774, 1994). Briefly, a goat anti-human IgG serum directed against the Fc region (Jackson Immunoresearch Laboratories, Inc., West Grove, Pa.), covalently coupled to the dextran matrix of a hydrogel chip, was used to capture the human 2F1/Fc protein. The 2F1/Fc fusion protein thus was immobilized on the BIAcore chip. The three IL-1 ligands, at several different concentrations, were reacted with the captured protein, and the change of mass per unit area over time was measured.

For assay [2], the target named is T2, soluble type I IL-1RI/Fc fusion protein (extracellular domain of human type I IL-1R fused to the Fc region … (human, UniProt P14778 18-336)).
T2 construct: extracellular domain; Positive control in the BIAcore assay; also called human type I IL-1R/Fc fusion protein; not shown: Fc region polypeptide (human IgG1, as for 2F1/Fc)
T2 sequence (looked up): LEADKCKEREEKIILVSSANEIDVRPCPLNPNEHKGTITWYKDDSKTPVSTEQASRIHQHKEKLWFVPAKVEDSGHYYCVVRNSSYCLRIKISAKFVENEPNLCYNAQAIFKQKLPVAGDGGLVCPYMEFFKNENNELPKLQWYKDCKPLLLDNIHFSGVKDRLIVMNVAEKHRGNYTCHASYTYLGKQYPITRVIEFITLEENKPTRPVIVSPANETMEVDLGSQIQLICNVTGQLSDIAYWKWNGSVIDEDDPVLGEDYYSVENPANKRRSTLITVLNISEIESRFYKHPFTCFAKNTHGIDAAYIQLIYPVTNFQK
Description: BIAcore; Fc fusion captured by anti-human IgG Fc serum.
Text: as §1
Background: SPR reads the build-up and loss of mass on a sensor chip optically.

B1: human IL-1 receptor antagonist protein (ligand, UniProt P18510 26-177, looked up)
chain: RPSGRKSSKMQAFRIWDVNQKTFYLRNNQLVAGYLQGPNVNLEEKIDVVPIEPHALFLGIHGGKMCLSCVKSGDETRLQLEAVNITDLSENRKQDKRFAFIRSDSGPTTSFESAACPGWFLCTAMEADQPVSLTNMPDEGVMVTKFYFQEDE
notes: also called IL-1ra
In the case of B1, the results for the binding result in assay [1] and in assay [2] were “no binding” and “binds”, respectively.

For the origin of these results see US7235238 (IMMUNEX, dated 2007).
